Measurements: patent US20260382690A1, “Dual-Domain Peptide for Depleting HMGB1 from the Circulation via Liver HSPG System” (published 2026)

Test system: GSNOR
Assay: GSNOR immunofluorescence in lung sections of treated SS mice
Settings: 3 weeks; for decrease of GSNOR staining in lung sections: hE-HMGB1-BP 2.72 mg/kg/d, KYC 3 mg/kg/d; for GSNOR staining in alveolar microvessels versus untreated AA mice: hE-HMGB1-BP or KYC
Method: The right main bronchus was ligated with silk at the carina and snap-frozen in liquid nitrogen for immunoblot analysis after resection below the ligature. The trachea was then cannulated with an Instech Solomon (20G) stainless steel feeding tube (Plymouth Meeting, PA). After the trachea was securely ligated with silk, the left lobe was inflated with 10% neutral buffered formalin at 25 cm-H2O (2.4 kPa). After 1 h, the fixed lung was stored in 10% buffered formalin for 24 h and then embedded in paraffin for histology. Lung sections (5 um) were mounted on SuperFrost Plus-coated slides (Denville Scientific, Metuchen, NJ). Slides were deparaffinized, and sections stained with hematoxylin and eosin (H&E; Sigma, St. Louis, MO; catalog #MHS16 and HT110116) or immunostained for CD31 (R&D Systems, Minneapolis, MN; Catalog #AF3628) and GSNOR (Proteintech Group, Rosemont, IL; Catalog #11051-1-AP) for co-localization studies. Four to five immunofluorescence images were randomly captured for each lung section, the fluorescence intensities were analyzed for outliers and then averaged, and the average intensity was plotted as a single data point for each mouse. Protein SNOs were analyzed by Pierce S-Nitrosylation Western Blot Kit (Thermo Fisher, Milwaukee, WI; Catalog #90105). All other mentioned reagents and chemicals were purchased from Thermo Fisher (Milwaukee, WI).
The right main lung bronchus was ligated with silk at the carina and snap-frozen in liquid nitrogen for immunoblot analysis after resection below the ligature. The trachea was cannulated using an Instech Solomon (20G) stainless steel feeding tube (Plymouth Meeting, PA). After securely ligating the trachea with silk, the left lobe was inflated with 10% neutral buffered formalin at 25 cm-H2O (2.4 kPa). After one hour, the fixed lung was stored in 10% buffered formalin for 24 h and then embedded in paraffin for histology. Lung sections (5 μm) were mounted on SuperFrost Plus-coated slides (Denville Scientific, Metuchen, NJ). Slides were deparaffinized, and sections stained with hematoxylin and eosin (H&E; Sigma, St. Louis, MO; catalog #MHS16 and HT110116) for morphometric studies or immunostained for CD31 with a polyclonal goat IgG antibody (R&D Systems, Minneapolis, MN; Catalog #AF3628) and visualized with Alexa Fluor Plus 488-conjugated donkey anti-goat IgG (ThermoFisher, Milwaukee, WI; Catalog #A32814TR) and for GSNOR with a rabbit anti-GSNOR polyclonal antibody (Proteintech Group, Rosemont, IL; Catalog #11051-1-AP) and visualized with an Alexa Fluor 546-conjugated donkey anti-rabbit IgG (ThermoFisher, Milwaukee, WI; Catalog #A10040) for co-localization studies. Lung CD31 and GSNOR immunofluorescent images were captured using a Zeiss Axioimager Z1 microscope with Zeiss axiocam HRC 13megapixel camera (⅔″ CCD sensor). […]

CC[C@H](C)[C@H](NC(=O)CNC(=O)[C@H](CCCCN)NC(=O)[C@@H](NC(=O)[C@H](CC(=O)O)NC(=O)[C@H](Cc1ccccc1)NC(=O)[C@H](CC(N)=O)NC(=O)[C@H](CC(N)=O)NC(=O)[C@H](C)NC(=O)[C@H](CO)NC(=O)[C@H](Cc1c[nH]cn1)NC(=O)[C@H](C)NC(=O)CNC(=O)CNC(=O)[C@H](CCCNC(=N)N)NC(=O)[C@H](CC(C)C)NC(=O)[C@H](CC(C)C)NC(=O)[C@H](CCCNC(=N)N)NC(=O)[C@H](CCCCN)NC(=O)[C@H](CCCNC(=N)N)NC(=O)[C@H](CC(C)C)NC(=O)[C@H](CCCCN)NC(=O)[C@H](CCCNC(=N)N)NC(=O)[C@H](CC(C)C)NC(C)=O)C(C)C)C(N)=O
decrease of GSNOR staining in lung sections: 64%
GSNOR staining in alveolar microvessels versus untreated AA mice: not reduced to the levels observed in these same microvessels in untreated AA mice

CC(=O)N[C@@H](CCCCN)C(=O)N[C@@H](Cc1ccc(O)cc1)C(=O)N[C@@H](CS)C(N)=O
decrease of GSNOR staining in lung sections: 85%
GSNOR staining in alveolar microvessels versus untreated AA mice: not reduced to the levels observed in these same microvessels in untreated AA mice
